In article PMC10532679 (Life, 2023):

Target: wild-type H6-PKA-Cα, untreated (alpha isoform of the catalytic subunit of cAMP-dependent protein kinase) (murine, UniProt P05132 2-351)
Assay: SPR; OpenSPR-XT; CREBtide coupled to a carboxyl sensor; PKA-Cα flowed at 75 µL/min; 1X HBS-P+, 10 mM MgCl2, 0.01% NP-40, 0.5% BSA, 10 µM AMP-PNP, pH 7.4; kinetics analysis; apparent
Conditions: both partners purified

- koff: 0.0163 ± 0.25 s⁻¹
- kon: 6710 ± 1.21 M⁻¹ s⁻¹
B1: CREBtide (peptide)
peptide: KRREILSRRPSYR
notes: Coupled by EDC/sulfo-NHS to the carboxyl sensor in SPR; source: bought: Alfa Aesar
